Test: Ratio of inhibitory concentration to that of reference drug was determined
Assay type: functional

CN(C)c1ccc(C(=C2C=CC(=[N+](C)C)C=C2)c2ccc(N(C)C)cc2)cc1.[Cl-] [GENTIAN VIOLET]
Ratio: 1
